For test [1], the target named is rat mGlu3 (Rattus norvegicus (Rat), UniProt P31422). The test can be described thus: mGlu3 Ca2+ flux assay. Type of test: cell-based. The settings on record: NAM potency, decrease of glutamate EC80 response; >30,000 = no measurable activity; >10,000 = no plateau. The procedure: The cells were grown overnight at 37° C. in the presence of 5% CO2. […] Dye was removed, 20 μL of assay buffer was added, and the plate was incubated for 10 minutes at room temperature. Ca^2+ flux was measured using the Functional Drug Screening System (FDSS7000, Hamamatsu, Japan). […] All test compounds were dissolved and diluted to a concentration of 10 mM in 100% DMSO. […] Calcium fluorescence measures were recorded as fold over basal fluorescence; raw data was then normalized to the maximal response to glutamate. Antagonism of the agonist response of the mGlu3 receptor in the present invention was observed as a decrease in response to nearly maximal concentrations of glutamate in the presence of compound compared to the response to glutamate in the absence of compound. The raw data file containing all time points was used as the data source in the analysis template. This was saved by the FDSS as a tab-delimited text file. Data were normalized using a static ratio function (F/F0) for each measurement of the total 360 values per well divided by each well's initial value. […] This is sufficient time to capture the peak amplitude of the cellular calcium response. […] EC50 values for test compounds were generated by fitting the normalized values versus the log of the test compound concentration (in mol/L) using a 4 parameter logistic equation where none of the parameters were fixed. […]

The chains behind the UniProt entries cited, without tags or fusion partners. Residues count along the entry.
UniProt P31422, 23-879: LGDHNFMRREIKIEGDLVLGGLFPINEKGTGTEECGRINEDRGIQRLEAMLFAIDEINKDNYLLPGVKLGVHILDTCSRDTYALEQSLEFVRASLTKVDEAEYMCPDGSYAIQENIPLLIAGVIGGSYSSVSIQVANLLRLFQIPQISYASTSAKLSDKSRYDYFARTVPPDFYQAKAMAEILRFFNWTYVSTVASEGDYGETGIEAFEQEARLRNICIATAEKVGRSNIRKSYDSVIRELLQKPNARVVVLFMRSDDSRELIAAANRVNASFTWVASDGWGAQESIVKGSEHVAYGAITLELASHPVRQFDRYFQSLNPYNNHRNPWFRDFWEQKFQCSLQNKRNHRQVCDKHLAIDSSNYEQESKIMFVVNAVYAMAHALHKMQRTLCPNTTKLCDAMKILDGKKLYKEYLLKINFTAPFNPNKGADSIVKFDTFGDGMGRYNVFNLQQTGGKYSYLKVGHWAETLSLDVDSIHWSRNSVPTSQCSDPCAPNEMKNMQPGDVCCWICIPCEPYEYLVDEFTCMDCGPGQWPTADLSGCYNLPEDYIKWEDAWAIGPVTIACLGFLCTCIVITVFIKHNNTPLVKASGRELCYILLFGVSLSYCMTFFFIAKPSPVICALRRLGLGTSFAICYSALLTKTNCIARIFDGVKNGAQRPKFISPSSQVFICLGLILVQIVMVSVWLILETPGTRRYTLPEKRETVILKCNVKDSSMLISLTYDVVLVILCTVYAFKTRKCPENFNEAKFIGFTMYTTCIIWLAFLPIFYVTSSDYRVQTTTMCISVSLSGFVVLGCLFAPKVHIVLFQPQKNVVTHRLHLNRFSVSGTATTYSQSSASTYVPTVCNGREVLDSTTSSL
UniProt P31424, 21-1203: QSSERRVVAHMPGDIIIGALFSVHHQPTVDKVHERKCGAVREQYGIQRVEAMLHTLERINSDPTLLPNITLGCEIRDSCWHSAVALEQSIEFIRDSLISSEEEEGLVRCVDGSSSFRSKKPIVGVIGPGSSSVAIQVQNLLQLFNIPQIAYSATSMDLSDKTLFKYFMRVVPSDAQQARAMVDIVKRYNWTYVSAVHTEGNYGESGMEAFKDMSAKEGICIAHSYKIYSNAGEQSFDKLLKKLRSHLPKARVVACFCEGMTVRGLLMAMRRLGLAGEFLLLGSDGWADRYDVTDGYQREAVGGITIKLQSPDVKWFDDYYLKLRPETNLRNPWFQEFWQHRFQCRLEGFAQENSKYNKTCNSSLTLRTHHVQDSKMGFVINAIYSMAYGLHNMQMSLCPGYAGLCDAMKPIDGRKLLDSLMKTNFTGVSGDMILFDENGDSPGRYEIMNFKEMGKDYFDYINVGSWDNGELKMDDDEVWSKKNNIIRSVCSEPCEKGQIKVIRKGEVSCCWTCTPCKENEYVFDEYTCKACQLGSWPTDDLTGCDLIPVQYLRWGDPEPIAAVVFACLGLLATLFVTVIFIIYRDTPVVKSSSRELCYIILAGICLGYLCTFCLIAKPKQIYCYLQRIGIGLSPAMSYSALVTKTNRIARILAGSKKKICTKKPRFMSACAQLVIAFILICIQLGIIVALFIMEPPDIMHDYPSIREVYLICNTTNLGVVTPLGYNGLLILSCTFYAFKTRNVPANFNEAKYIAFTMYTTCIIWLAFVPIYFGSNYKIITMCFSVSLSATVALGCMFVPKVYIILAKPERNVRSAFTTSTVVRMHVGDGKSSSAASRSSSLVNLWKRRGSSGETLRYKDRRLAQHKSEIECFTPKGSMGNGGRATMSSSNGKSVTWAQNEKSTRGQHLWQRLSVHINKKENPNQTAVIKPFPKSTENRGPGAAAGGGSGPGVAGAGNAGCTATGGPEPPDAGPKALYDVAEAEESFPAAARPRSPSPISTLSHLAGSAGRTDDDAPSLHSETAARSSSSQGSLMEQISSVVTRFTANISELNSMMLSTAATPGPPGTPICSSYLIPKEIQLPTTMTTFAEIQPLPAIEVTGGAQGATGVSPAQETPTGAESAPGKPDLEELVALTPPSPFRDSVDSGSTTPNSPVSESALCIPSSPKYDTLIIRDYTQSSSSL

For test [2], the target named is rat mGlu5 (Rattus norvegicus (Rat), UniProt P31424). Kind of test: mGlu5 Ca2+ flux assay. The settings on record: read-out: rat mGlu5 EC50 or IC50. The format is cell-based. The method, then:
The cells were grown overnight at 37° C. in the presence of 5% CO2. […] Dye was removed, 20 μL of assay buffer was added, and the plate was incubated for 5 minutes at room temperature. Ca^2+ flux was measured using the Functional Drug Screening System (FDSS7000, Hamamatsu, Japan). […] All test compounds were dissolved and diluted to a concentration of 10 mM in 100% DMSO. […] Calcium fluorescence measures were recorded as fold over basal fluorescence; raw data was then normalized to the maximal response to glutamate. […] The raw data file containing all time points was used as the data source in the analysis template. This was saved by the FDSS as a tab-delimited text file. Data were normalized using a static ratio function (F/F0) for each measurement of the total 360 values per well divided by each well's initial value. […] This is sufficient time to capture the peak amplitude of the cellular calcium response. […] EC50 values for test compounds were generated by fitting the normalized values versus the log of the test compound concentration (in mol/L) using a 4 parameter logistic equation where none of the parameters were fixed. Each of the three values collected at each concentration of test compound were weighted evenly.

Where only a bound is given, the exact number is not on record here.

2 compounds from patent US9676782B2, “Substituted pyrazolo[1,5-a]pyrazines as negative allosteric modulators of metabotropic glutamate receptor 3” (Vanderbilt University, priority 2014, dated 2017) can be followed below.

What is called IC50 is the concentration that inhibits the measured activity by half. The low end stands for higher potency, the high end for lower potency. As usually defined, the EC50 is the concentration needed to bring the measured effect to its halfway point. Take `C[C@@H]1CN(c2ccc(F)cc2)C(=O)c2cc(CNc3c(F)cccc3F)nn21` [Compound 72, (R)-2-(((2,6-difluorophenyl)amino)methyl)-5-(4-fluorophenyl)-7-methyl-6,7-dihydropyrazolo[1,5-a]pyrazin-4(5H)-one]: half-maximal inhibition in test [1] (IC50) required 1.92 µM. Moreover, the 50% effective concentration (EC50) in test [2] is above 10 µM.

As for `C[C@H]1CN(c2ccc(F)cc2)C(=O)c2cc(CNc3c(F)cccc3F)nn21` [Compound 73, (S)-2-(((2,6-difluorophenyl)amino)methyl)-5-(4-fluorophenyl)-7-methyl-6,7-dihydropyrazolo[1,5-a]pyrazin-4(5H)-one], the EC50 in test [2] was above 10 µM.
